# Source: the supplement of paper PMC12350171
# What follows is the remainder of the data, with few or none of the hits.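 The calls were made as follows: active = AUC significantly below DMSO controls by Student t-fit with adjusted P under 0.01; inactive = not significantly reduced.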
# Tested on: Haemophilus parainfluenzae
# Test: growth AUC normalised to DMSO control (fraction of control); higher = less growth inhibition, active = hit call of the paper
# Details: 20 µM
structure (smiles),measurement,value
COc1cc(Br)c(C[N+]2(CCOCCC3CCC4CC3C4(C)C)CCOCC2)cc1OC (stereo unspecified) [Pinaverium bromide],growth AUC normalised to DMSO control,inactive: 1.05
